ChEMBL document CHEMBL5625257, “Design, synthesis, and evaluation of dual EGFR/AURKB inhibitors as anticancer agents for non-small cell lung cancer” (Bioorg Med Chem Lett, 2024)
Activity calls are given as the source filed them. No cut-off for these calls is given here.

Protein sequences, listed by entry. Tags and fused reporters are not part of them. Lines headed by an entry give the natural chain unless they say otherwise; changes in a name come on top.
UniProt P36888, whole entry: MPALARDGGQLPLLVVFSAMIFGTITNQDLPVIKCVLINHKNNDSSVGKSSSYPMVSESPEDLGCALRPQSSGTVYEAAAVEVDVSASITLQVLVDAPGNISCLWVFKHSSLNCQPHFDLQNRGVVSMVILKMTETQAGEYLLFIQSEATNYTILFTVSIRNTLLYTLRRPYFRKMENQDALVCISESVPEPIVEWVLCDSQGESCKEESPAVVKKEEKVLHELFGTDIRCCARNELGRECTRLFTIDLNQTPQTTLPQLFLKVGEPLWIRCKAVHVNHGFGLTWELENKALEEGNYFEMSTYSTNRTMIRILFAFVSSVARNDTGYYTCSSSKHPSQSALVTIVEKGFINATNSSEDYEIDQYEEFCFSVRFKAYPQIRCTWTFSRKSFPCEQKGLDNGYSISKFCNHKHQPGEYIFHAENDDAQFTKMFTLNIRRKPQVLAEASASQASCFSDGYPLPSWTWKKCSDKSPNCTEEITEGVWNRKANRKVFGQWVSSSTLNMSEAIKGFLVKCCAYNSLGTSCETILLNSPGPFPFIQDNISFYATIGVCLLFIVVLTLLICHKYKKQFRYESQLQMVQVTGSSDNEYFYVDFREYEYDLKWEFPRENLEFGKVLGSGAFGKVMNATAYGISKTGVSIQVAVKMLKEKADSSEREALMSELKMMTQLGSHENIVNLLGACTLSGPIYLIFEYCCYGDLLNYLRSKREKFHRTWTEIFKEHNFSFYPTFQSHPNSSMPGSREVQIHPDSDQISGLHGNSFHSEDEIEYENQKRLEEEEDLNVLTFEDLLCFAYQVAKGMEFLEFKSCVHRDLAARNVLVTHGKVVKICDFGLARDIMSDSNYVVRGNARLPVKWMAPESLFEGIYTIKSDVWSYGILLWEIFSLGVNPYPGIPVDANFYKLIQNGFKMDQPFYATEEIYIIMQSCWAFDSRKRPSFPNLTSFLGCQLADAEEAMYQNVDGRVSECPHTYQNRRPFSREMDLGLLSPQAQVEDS
UniProt O00750: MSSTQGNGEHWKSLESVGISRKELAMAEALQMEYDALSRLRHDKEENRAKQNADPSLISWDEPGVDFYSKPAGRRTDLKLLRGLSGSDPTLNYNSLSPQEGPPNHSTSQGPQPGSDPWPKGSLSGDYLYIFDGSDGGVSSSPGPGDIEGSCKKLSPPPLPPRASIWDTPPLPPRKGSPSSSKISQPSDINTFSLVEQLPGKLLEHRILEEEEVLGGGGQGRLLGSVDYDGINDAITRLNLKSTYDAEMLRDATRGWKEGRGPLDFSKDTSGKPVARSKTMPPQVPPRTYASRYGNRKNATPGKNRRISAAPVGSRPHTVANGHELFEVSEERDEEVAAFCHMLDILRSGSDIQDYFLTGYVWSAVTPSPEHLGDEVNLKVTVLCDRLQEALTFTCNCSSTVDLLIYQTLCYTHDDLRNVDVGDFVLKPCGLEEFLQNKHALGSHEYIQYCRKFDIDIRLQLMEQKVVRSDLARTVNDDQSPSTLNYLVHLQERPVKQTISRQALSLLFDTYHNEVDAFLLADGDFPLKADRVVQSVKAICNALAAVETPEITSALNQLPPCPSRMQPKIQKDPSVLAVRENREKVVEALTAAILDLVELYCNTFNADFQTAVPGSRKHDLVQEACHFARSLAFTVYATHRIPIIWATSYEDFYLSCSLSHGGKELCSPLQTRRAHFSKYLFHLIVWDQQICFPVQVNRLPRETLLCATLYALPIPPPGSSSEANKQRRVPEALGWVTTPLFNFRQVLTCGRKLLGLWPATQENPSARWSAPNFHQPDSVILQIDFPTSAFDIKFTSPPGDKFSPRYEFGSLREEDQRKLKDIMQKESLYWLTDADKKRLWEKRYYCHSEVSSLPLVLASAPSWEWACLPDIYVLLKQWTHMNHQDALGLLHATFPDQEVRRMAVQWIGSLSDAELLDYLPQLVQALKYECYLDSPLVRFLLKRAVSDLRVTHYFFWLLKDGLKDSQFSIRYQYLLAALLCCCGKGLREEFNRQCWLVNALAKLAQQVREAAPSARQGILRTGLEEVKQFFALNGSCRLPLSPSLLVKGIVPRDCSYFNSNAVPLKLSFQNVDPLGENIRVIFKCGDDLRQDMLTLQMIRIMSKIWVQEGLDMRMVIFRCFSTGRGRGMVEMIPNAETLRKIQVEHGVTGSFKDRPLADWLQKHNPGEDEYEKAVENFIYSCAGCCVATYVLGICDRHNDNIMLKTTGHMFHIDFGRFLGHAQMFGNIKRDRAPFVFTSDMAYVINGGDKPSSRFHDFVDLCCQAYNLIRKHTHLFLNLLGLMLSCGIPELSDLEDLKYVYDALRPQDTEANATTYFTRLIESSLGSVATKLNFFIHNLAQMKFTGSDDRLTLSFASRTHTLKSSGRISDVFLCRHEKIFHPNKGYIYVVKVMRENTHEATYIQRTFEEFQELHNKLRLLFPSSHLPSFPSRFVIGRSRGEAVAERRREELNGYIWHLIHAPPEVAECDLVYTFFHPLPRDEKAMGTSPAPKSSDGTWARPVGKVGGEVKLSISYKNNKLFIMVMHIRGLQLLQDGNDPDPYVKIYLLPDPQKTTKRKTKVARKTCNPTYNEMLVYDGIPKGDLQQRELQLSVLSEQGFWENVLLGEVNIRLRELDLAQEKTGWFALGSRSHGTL

How the values were obtained:
MDA-MB-468 = assay: Anticancer activity against human MDA-MB-468 cells assessed as inhibition of cell growth; assay type: functional, cell-based
SNB-75 = assay: Anticancer activity against human SNB-75 cells assessed as inhibition of cell growth; assay type: functional, cell-based
Hs-578T = assay: Anticancer activity against human Hs-578T cells assessed as inhibition of cell growth; assay type: functional, cell-based
NCI-H226 = assay: Anticancer activity against human NCI-H226 cells expressing KRAS mutant assessed as inhibition of cell growth; assay type: functional, cell-based
[1] = test system: Epidermal growth factor receptor (Homo sapiens), P00533 [L858R]
[2] = molecular target: Receptor-type tyrosine-protein kinase FLT3 (Homo sapiens) (UniProt P36888); assay: Inhibition of human FLT3 at 1 uM relative to control
[3] = molecular target: T1, Bone morphogenetic protein receptor type-2 (Homo sapiens) (UniProt Q13873); assay: Inhibition of human BMPR2 at 1 uM relative to control
T1 sequence (whole entry): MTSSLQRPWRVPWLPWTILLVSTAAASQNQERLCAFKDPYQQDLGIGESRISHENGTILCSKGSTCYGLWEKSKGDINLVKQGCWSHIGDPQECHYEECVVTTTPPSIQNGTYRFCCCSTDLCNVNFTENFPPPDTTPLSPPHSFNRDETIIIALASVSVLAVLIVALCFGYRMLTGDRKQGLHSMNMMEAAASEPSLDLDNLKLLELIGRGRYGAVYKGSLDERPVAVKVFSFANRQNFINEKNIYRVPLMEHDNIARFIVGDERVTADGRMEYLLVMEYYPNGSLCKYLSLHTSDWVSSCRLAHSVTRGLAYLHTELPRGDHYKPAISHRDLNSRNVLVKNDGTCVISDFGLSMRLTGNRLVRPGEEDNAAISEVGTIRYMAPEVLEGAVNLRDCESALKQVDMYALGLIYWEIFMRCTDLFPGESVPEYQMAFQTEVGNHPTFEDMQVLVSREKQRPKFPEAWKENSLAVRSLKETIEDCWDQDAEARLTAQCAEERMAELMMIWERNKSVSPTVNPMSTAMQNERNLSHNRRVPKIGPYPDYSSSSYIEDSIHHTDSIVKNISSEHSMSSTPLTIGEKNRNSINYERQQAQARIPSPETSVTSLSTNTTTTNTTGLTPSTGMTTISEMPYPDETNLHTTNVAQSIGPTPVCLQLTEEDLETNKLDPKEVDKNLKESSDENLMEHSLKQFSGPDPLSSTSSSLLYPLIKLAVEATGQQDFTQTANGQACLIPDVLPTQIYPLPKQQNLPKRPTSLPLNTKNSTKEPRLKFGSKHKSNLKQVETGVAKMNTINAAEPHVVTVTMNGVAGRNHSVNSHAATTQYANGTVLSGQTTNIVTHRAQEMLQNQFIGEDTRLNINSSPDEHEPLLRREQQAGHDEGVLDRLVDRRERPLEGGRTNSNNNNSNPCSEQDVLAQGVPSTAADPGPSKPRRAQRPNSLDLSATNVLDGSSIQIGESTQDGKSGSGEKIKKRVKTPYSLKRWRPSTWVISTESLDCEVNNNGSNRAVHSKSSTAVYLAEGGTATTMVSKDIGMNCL

[4] = molecular target: Phosphatidylinositol 4-phosphate 3-kinase C2 domain-containing subunit beta (Homo sapiens) (UniProt O00750); assay: Inhibition of human PI3KC2B at 1 uM relative to control

## Cn1nccc1-c1cc2c(Nc3ccc(OCc4ccccc4)cc3)ncnc2[nH]1
MDA-MB-468
  Activity: Active
SNB-75
  Activity: Active
Hs-578T
  Activity: Active
NCI-H226
  Activity: Active
[1]
  Ratio: 4
[2]
  inhibition: 75%

## O=S(=O)(Nc1ccc(Nc2ncnc3[nH]ccc23)cc1)c1ccccc1
[3]
  inhibition: 97%

## O=C(Nc1ccccc1)c1ccc(Nc2ncnc3[nH]ccc23)cc1
[4]
  inhibition: 74%
